## Yeast mating assay 2: variants of the scFv Ab-95

Reference: Engelhart et al. 2022, doi:10.1038/s41597-022-01779-4. File: FLAb, binding data.

Antigen: PDVDLGDISGINAS, a 14-residue peptide of the SARS-CoV-2 spike HR2 region.

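AAYL52 was designed without a model: most single CDR substitutions and a random sample of double and triple ones. AlphaSeq pools MATa yeast showing the antibodies with MATalpha yeast showing the peptide. Mating (16 h, 30 °C) was followed by selection of diploids and sequencing of their barcodes. Read counts were normalised to the haploid input and turned into Kd by a linear fit to BCL2-family pairs of known affinity, for each replicate. There are three technical replicates.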

Parent scFv Ab-95: VH joined to VL by three GGGGS repeats. Changes lie in the light chain CDRs alone.
VH: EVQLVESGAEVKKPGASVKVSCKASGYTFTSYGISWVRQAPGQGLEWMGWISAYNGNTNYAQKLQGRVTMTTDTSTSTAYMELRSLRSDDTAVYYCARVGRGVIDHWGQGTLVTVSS
VL: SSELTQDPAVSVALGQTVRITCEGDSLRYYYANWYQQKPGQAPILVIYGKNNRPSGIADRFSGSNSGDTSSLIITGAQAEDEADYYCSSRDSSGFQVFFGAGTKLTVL

The parent's light chain CDRs are EGDSLRYYYAN, GKNNRPS, SSRDSSGFQVF; each variant's own CDRs replace them letter for letter.
Each Kd is an estimate from the mating assay, the geometric mean of the replicates in which the pair was seen; lower is stronger.
A pair that was not seen in any replicate is written "no signal"; this usually means weak binding, but a binder can also be missed.

Kd (apparent)	detected	CDR-L1	CDR-L2	CDR-L3
570 nM	3/3	CGDSLRHYYAN	GKNNRPS	SSRDSSGFQVC
no signal	0/3	EWQSLRYYYAN	GKNNRPS	CSRDSSGFQVF
580 nM	3/3	EGDSLRDYYKN	GKNNRPS	SSRDSSGFQNF
170 µM	1/3	EPDSLRYYYLN	GKNNMPS	SSRDSSGFQVF
44 nM	3/3	EGDSLRYVYAN	GKNNRPS	SSRDSSGFDFF
26 µM	2/3	EGDSSRYYYAN	GCNNRPS	SSRDSSGFPVF
25 µM	3/3	EGDSLRCYYAN	GKNNRQS	SSRDSSGFSVF
no signal	0/3	LGDSLRYYYAN	GKFNRPS	PSRDSSGFQVF
430 nM	3/3	EGGSLRYYYAN	GKNFRPS	SSLDSSGFQVF
no signal	0/3	HGDSLRYYYAN	GKNNRPS	SSHDNSGFQVF
22 µM	3/3	EGWSLRYYYDN	GKNNEPS	SSRDSSGFQVF
no signal	0/3	EGDSLRYYYAP	GKNNEPS	SSRDWSGFQVF
58 µM	2/3	EGDSLRYYYAS	GKRNRPS	SPRDSSGFQVF
210 nM	3/3	EGTSLRYYYAN	GKNNRPA	SSRDSSGNQVF
5.8 µM	1/3	EGDTLRYYYAN	GKNNRPS	SSIMSSGFQVF
no signal	0/3	EGDSLRYYYAN	GKNNRPS	SSRTSSPFQVF
6.7 µM	1/3	EGDSLRYYYAN	HKNYRPS	SSRDSVGFQVF
no signal	0/3	EGDSLRYYYAK	GKNQRRS	SSRDSSGFQVF
120 nM	3/3	EGPGLRYYYAN	GKNNRPS	SSRDSSGFQVF
940 nM	3/3	NGLSLRYYYAN	GKNNRPT	SSRDSSGFQVF
55 µM	2/3	EGDSLRYYTAN	GKNNRPS	SSRDSSQFQVF
3.4 µM	3/3	ELDSLVYYYAN	GKNNRPS	SSRDSSGFQVF
160 nM	3/3	EGDSLRYYYAN	GKNNRPS	LSRDFLGFQVF
8.2 µM	2/3	EGDSLRYYYAN	GKQNQPS	VSRDSSGFQVF
660 nM	3/3	EGDSLRYYYAN	GKNNRPS	RSRDSMGFQVF
1.6 µM	3/3	EGHSLRYYYAN	GKNNRPN	SSQDSSGFQVF
780 nM	1/3	EGDSLRYYYAN	GKNNMPS	SSRDSSGFWVF
1.6 µM	3/3	EGDRLPGYYAN	GKNNRPS	SSRDSSGFQVF
26 µM	1/3	EGDSLRYYYAF	GKNNRPS	SSRDSSPFGVF
96 µM	2/3	EGDSLRYYYAN	GKRNRPE	SSRMSSGFQVF
28 µM	1/3	EGDSLRYYYAY	QKNNRPS	SSTDSSGFQVF
140 µM	2/3	EGDSLRYYYAP	GKNNRPS	HSRDSAGFQVF
32 µM	2/3	FGDSTRYYYEN	GKNNRPS	SSRDSSGFQVF
83 nM	3/3	EGDSLRYEEAN	GKNNRPS	SSRDSSEFQVF
1.1 µM	3/3	EGDGLWYYYAN	GKNNRPS	SSRDSSGYQVF
380 nM	2/3	KGDSLRYYYAN	GKNNRPS	SSFDSSGFQVF
8.3 nM	3/3	EGDSLRYSYAN	GKNNRPS	FSRDSCGFQVF
14 nM	3/3	EGDSLRYGGAN	GKNNRPS	SSRDRSGFQVF
3.9 µM	2/3	EGDSLRYYTAN	GKNNRPS	SSRTSNGFQVF
470 nM	3/3	KGHSSRYYYAN	GKNNRPS	SSRDSSGFQVF
3.4 µM	1/3	EGDSLRYYYAN	GKNNRPS	SSRRSSMFVVF
15 nM	3/3	EGDSLRNYYAN	GLNNRPS	SSRDSSGFQVC
730 nM	2/3	EGDSLRYYYAN	GKNNRPS	MPRDSSGNQVF
790 nM	3/3	QGDSLRCYYAN	GKNNRPS	SSRDSSGFQVS
20 µM	1/3	EQDSLRYYYIN	GKNNRPS	SSRDSGGFQVF
no signal	0/3	DGDSLRYYYAN	GKNNRPS	TSRDGSGFQVF
18 µM	1/3	EGDSLRYYYAH	GKNNRPG	SSRDSSGFQVS
6.5 µM	3/3	EGDSLCYYTAN	GKNHRPS	SSRDSSGFQVF
7.2 µM	3/3	DRDSLRKYYAN	GKNNRPS	SSRDSSGFQVF
3.3 µM	2/3	ELDSLRYYYAN	GKNNRPS	HSRDSSMFQVF
93 nM	3/3	EGKSLREYYAN	GKNNRPS	SSRDSSGFQVF
290 nM	3/3	EGASLRYYYAN	GKNNRPS	ISRVSSGFQVF
4.5 µM	2/3	EGDSLRYYYAN	GKCNRPS	SSRDSSAWQVF
no signal	0/3	EGDSLRYYYEN	GKKCRPS	SSRDSSGFQVF
15 µM	2/3	EGYSLRYYEAH	GKNNRPS	SSRDSSGFQVF
no signal	0/3	EGDSLRYYYAN	GKNNRPS	DERDSSGLQVF
2.4 µM	3/3	EGESLRYYYAN	EKNHRPS	SSRDSSGFQVF
750 nM	3/3	EGDSGRGYYAN	GKNNRPS	SSRDSSKFQVF
860 nM	3/3	EGDSLRYYYAN	GKNNRSS	SHRDSSGFQHF

From the list, the first 7 with no signal in any replicate:

CDR-L1	CDR-L2	CDR-L3	Kd (apparent)	detected
EWQSLRYYYAN	GKNNRPS	CSRDSSGFQVF	no signal	0/3
LGDSLRYYYAN	GKFNRPS	PSRDSSGFQVF	no signal	0/3
HGDSLRYYYAN	GKNNRPS	SSHDNSGFQVF	no signal	0/3
EGDSLRYYYAP	GKNNEPS	SSRDWSGFQVF	no signal	0/3
EGDSLRYYYAN	GKNNRPS	SSRTSSPFQVF	no signal	0/3
EGDSLRYYYAK	GKNQRRS	SSRDSSGFQVF	no signal	0/3
DGDSLRYYYAN	GKNNRPS	TSRDGSGFQVF	no signal	0/3

Background: pairings of library AAYL52 with three empty control strains gave a value in 28% of cases (median 8.2 µM, 5th percentile 800 nM). Values in that range, when seen in few replicates, are hard to tell from nonspecific mating.